The values below come from PMC11997881, “Comprehensive Characterization of Bruton’s Tyrosine Kinase Inhibitor Specificity, Potency, and Biological Effects: Insights into Covalent and Noncovalent Mechanistic Signatures” (ACS Pharmacology & Translational Science, 2025).

Protein sequences, listed by entry. Tags and fused reporters are not part of them.
UniProt Q06187, whole entry C481S: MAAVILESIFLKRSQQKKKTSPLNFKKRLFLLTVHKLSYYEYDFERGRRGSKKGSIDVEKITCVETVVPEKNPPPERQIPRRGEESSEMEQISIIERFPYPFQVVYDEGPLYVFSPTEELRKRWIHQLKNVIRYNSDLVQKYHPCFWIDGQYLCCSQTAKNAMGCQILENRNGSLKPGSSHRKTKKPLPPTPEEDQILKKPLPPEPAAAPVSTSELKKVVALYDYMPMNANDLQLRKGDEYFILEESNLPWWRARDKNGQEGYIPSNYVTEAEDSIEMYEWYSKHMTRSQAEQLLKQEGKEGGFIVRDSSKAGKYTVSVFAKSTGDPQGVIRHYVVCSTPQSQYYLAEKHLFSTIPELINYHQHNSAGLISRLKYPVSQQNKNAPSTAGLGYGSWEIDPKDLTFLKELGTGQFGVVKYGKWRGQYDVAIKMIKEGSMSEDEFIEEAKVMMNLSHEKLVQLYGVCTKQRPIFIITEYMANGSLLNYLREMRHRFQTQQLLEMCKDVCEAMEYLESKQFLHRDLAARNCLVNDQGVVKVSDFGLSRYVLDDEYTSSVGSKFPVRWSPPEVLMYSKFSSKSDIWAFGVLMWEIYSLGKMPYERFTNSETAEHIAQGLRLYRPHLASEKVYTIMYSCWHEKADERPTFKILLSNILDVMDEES

Structures are written as SMILES. Where two headings read alike, the source gives them in different places. A value given as a limit tells only on which side of the number the result lay.

One experiment deals with T1, wild-type BTK (Homo sapiens, UniProt Q06187).
T1 construct: made in house; host or cells: transiently transfected HEK293 cells (unpurified extract)
Kind of experiment: KdELECT competition binding, wild-type BTK.

For experiment [1], the target named is BTK C481S. The following applies: average of literature values; read-out: average published Kd for BTK C481S; cited from earlier work.
The target of experiment [2] is T2, BTK (Homo sapiens, UniProt Q06187).
T2 construct: host or cells: transiently transfected HEK293 cells
Description: scanMAX binding POC, BTK. The following applies: 1 μM; zero POC = competition comparable to positive control.

Experiment [3] has as its target BTK. The following applies: wild-type BTK; average of literature values; read-out: average published Kd for BTK; cited from earlier work.
Experiment [4] addresses T3, BTK C481S (Homo sapiens, UniProt Q06187, C481S).
T3 construct: made in house; host or cells: transiently transfected HEK293 cells (unpurified extract)
Description: KdELECT competition binding, mutant BTK C481S.

The mark [5] stands for this setting: ATP-independent in vitro binding, 25 °C, read-out: Kd for wild-type BTK.
Where [6] appears, read: category by Kd for wild-type BTK, read-out: potency for BTK.
The mark [7] stands for this setting: wild-type BTK, average of N replicates, each in technical duplicate, read-out: average in-house Kd for BTK.
Setting [8] is: ATP-independent in vitro binding, 25 °C, read-out: Kd for BTK C481S.
[9] abbreviates: N = 1, technical duplicate, read-out: average in-house Kd for BTK C481S.
[10] abbreviates: category by Kd for BTK C481S, read-out: potency for BTK C481S.

In the case of `C[C@H]1CN(C2COC2)CCN1c1ccc(Nc2cc(-c3ccnc(N4CCn5c(cc6c5CC(C)(C)C6)C4=O)c3CO)cn(C)c2=O)nc1` [Fenebrutinib], the Kd was 1.5 nM at wild-type BTK (setting [5]); 1 to 10 nM on wild-type BTK (setting [6]); 1.5 nM at wild-type BTK (setting [7]); 5.1 nM on BTK C481S [1]; 0.2 nM at BTK [3]; 0.17 nM at BTK C481S [4] (setting [8]). The values for the Kd at BTK C481S [4] (setting [9]) and on BTK C481S [4] (setting [10]) were 0.17 nM and less than 1 nM, respectively. Besides, the “BTK binding POC” value on BTK [2] is 0% of control.
`C=CC(=O)Nc1cccc(Nc2nc(Nc3ccc(OCCOC)cc3)ncc2F)c1` [Spebrutinib]: the Kd was 2.3 nM on wild-type BTK (setting [5]); 1 to 10 nM on wild-type BTK (setting [6]); 2.3 nM at wild-type BTK (setting [7]); more than 1000 nM at BTK C481S [4] (setting [8]); more than 1000 nM on BTK C481S [4] (setting [9]); more than 1000 nM at BTK C481S [4] (setting [10]). For the same molecule, the “Kd for BTK C481S” value at BTK C481S [4] (ATP-independent in vitro binding, 25 °C) is recorded as “did not demonstrate any binding at the concentrations tested”.
